From BindingDB's records for doi:10.1016/s0960-894x(99)00562-4 (Georgetown University Medical Center, 1999)
Values joined by “and” are separate entries in the source; they are usually repeats but may differ in a detail not shown here. Equal values may be shown once.

Chains of the proteins cited; added tags and fusions are not shown.
UniProt P31645, whole entry: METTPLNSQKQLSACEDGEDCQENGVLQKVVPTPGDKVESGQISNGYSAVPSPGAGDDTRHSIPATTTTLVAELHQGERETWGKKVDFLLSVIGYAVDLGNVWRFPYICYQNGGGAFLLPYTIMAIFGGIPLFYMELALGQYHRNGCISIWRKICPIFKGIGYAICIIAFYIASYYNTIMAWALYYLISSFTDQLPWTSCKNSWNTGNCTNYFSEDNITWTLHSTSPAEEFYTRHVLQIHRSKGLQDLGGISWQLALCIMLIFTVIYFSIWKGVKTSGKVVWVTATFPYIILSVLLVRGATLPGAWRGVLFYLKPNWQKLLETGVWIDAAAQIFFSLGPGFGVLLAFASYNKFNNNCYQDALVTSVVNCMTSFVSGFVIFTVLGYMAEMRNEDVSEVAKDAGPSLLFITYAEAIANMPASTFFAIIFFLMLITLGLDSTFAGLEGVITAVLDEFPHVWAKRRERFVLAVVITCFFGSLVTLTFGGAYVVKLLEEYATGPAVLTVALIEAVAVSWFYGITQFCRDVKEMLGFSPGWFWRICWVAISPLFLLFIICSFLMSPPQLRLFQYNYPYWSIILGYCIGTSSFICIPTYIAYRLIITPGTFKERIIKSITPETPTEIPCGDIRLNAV
UniProt Q01959, whole entry: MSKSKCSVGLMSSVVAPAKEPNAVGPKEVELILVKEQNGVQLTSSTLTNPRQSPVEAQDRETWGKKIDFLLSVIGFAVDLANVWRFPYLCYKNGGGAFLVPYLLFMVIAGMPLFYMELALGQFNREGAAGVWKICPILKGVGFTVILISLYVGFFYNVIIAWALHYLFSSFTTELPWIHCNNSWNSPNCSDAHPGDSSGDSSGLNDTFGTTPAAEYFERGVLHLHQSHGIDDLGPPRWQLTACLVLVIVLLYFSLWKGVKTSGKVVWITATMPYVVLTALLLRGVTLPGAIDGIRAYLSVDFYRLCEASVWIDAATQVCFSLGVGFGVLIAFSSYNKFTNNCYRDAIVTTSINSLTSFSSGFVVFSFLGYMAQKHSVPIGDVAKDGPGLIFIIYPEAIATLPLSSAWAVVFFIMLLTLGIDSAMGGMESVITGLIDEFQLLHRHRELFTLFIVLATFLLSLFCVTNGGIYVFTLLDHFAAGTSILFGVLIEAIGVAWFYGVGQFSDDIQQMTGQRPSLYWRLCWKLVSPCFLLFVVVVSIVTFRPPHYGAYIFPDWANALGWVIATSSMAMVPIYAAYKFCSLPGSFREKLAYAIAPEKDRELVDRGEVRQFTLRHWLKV
UniProt P23975, whole entry: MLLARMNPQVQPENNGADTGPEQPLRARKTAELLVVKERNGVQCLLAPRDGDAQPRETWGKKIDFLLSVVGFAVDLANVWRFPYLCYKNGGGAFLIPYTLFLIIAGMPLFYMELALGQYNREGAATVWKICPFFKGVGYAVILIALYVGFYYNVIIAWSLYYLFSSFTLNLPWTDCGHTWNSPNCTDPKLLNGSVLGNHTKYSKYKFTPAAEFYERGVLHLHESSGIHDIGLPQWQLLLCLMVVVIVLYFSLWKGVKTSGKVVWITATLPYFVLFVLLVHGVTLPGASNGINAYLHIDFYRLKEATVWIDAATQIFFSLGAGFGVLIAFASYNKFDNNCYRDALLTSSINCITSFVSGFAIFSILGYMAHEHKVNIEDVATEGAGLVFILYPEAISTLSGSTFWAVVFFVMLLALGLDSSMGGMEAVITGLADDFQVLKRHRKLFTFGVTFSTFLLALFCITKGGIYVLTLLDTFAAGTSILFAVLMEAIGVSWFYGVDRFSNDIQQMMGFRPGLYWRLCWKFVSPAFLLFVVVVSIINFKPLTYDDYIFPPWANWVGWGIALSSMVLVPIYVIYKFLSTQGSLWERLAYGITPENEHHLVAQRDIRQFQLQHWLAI

What was measured:
[1] = target: T1, Sodium-dependent serotonin transporter (Homo sapiens, UniProt P31645); experiment: ChEBML_202305
Text: (§1) Inhibition of monoamine [3H]5-HT reuptake

[2] = target: T2, Sodium-dependent dopamine transporter (Homo sapiens, UniProt Q01959); experiment: Binding affinity against dopamine transporter (DAT) was evaluated using competitive binding assay and [3H]mazindol as a radioligand
[3] = target: T2, Sodium-dependent dopamine transporter; experiment: Inhibition of monoamine [3H]DA reuptake
[4] = target: T3, Sodium-dependent noradrenaline transporter (Homo sapiens, UniProt P23975); experiment: ChEBML_143135
Experimental: (§2) Norepinephrine transporter activity was determined by inhibition of monoamine [3H]-NE reuptake

[5] = target: T1, Sodium-dependent serotonin transporter; experiment: as §1
[6] = target: T3, Sodium-dependent noradrenaline transporter; experiment: as §2

| Structure (SMILES) | Ki [1] | Ki [2] | Ki [3] | Ki [4] | Ki [5] | Ki [6] |
| --- | --- | --- | --- | --- | --- | --- |
| CN1CC[C@H](c2ccc(Cl)cc2)[C@H](CCCN2CC[S][Re]3(=[O])[S]CC[N]3CC2)C1 (stereo not given in full) [piperidine based analogue of cocaine] | 243 nM | 96 nM | 193 nM | 231 nM |  |  |
| CN1CC[C@H](c2ccc(Cl)cc2)[C@H](CCCN2CC[S][Re]3(=[O])[S]CC[N]3C(=O)C2)C1 (stereo not given in full) | 888 nM | 43 nM | 110 nM and 112 nM | 2030 nM | 888 nM | 2030 nM |
